DT40 TDP1 no CPT = qHTS for Inhibitors of human tyrosyl-DNA phosphodiesterase 1 (TDP1): qHTS in cells in absence of CPT | DT40 Tdp1-/- hTDP1 cells, no CPT, ATP luminescence, 48 h | Potency, µM (doses to about 46.2 µM), for the others: at the top dose activity change, negative = growth inhibition, actives largely listed as inhibitors | 420,000 compounds, 15% hits; also: potency is read from the fitted curve at half-maximal effect; % is scaled to controls: 0 for no effect and ±100 for the full control effect; nearly all actives have a fitted effect of over 55% in size
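Readout: luminescence from CellTiter-Glo after 30 min in the dark at RT. Cells: DT40 Tdp1-/- with stable hTDP1, 400/well. Exposure: compounds alone, ≥48 hr, 37 °C.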
TDP1 block = TDP1 (human) enzyme inhibition | recombinant TDP1, AlphaScreen DNA substrate cleavage | 350,000 compounds, 0.28% hits | Potency, µM (top dose mostly 130 µM), inactives show top-dose activity change, negative = inhibition, most hits filed as inhibitors | Q9NUW8; also: potency is read from the fitted curve at half-maximal effect; % is scaled to controls: 0 for no effect and ±100 for the full control effect; nearly all actives have a fitted effect of over 40% in size
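Enzyme-compound mixtures sat 15 min at room temperature, followed by a 5 min reaction with 15 nM final substrate and 10 min with AlphaScreen beads. Recombinant human Tdp1 was used at 1 nM final.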
uPA generation = blocks generation of uPA at the cell surface; AID 540303; Potency, µM (series often up to 38.3 µM), without a hit: top-dose activity change, negative = inhibition, hits mostly inhibitors; cell surface uPA generation assay, qHTS; 330,000 compounds, 0.31% hits; active = well fitted inhibition curve with a large enough effect; inconclusive = small, poorly fitted or top-dose-only effect; inactive = no such curve, though single readings can be large or run the other way; tested in mouse RAW 264.7 cells; also: potency is read from the fitted curve at half-maximal effect; % is scaled to controls: 0 for no effect and ±100 for the full control effect; nearly all actives have a fitted effect of over 55% in size
DT40 TDP1 CPT = DT40-hTDP1 cell growth loss with CPT; chicken DT40 Tdp1-/-;hTDP1 cells + 20 nM CPT, ATP luminescence, 48 h; Potency, µM (top dose mostly 46.2 µM), inactives show at the top dose activity change, negative = growth inhibition, most hits filed as inhibitors; 420,000 compounds, 12% hits; also: potency is read from the fitted curve at half-maximal effect; % is scaled to controls: 0 for no effect and ±100 for the full control effect; nearly all actives have a fitted effect of over 55% in size
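Cell growth measured by CellTiter-Glo luminescence after a minimum 48 h, 37 C compound exposure with 20 nM CPT in Tdp1-knockout DT40 cells stably expressing hTDP1, seeded 400/well; qHTS titration format.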
miR-21 reporter = miR-21 reporter, rising signal; HeLa miR-21 FLuc reporter, luciferase, 48 h; Potency, µM (titrated, usually from 38.3 µM), for the others: at the top dose reporter change, positive = more light; 340,000 tested, under 10 active; AID 2288; active = well fitted rising curve with a large enough effect; inconclusive = small, poorly fitted or top-dose-only effect; inactive = no such curve, though single readings can be large or run the other way;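 also: % of control where 0% means no effect; miR-21 action dims this reporter so a rising signal means less miR-21 action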
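HeLa cells endogenously expressing miR-21, stably carrying CMV-driven firefly luciferase with a downstream miR-21 binding site, 2000 cells/well. Titrations up to approximately 40 uM, 48 hours; luciferase luminescence read.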
An asterisk follows results filed as active; ! = a repeat was not active; [ ] = remark or other dose. Rows were chosen to be rich in hits. Some 16% of all compounds tested hit in one or more screens of this group. Unless noted, calls follow the shape of the dose curve; as a rule, active = well fitted curve in the direction sought with a large enough effect; inconclusive = small, poorly fitted or top-dose-only effect, or another doubt; inactive = no such curve, though single readings can be large; an effect the other way counts as inactive or inconclusive.

How did COc1cc2c(=O)n(Cc3ccccc3Cl)c(=O)n(CC(=O)Nc3ccc(C)c(C)c3)c2cc1OC do in these assays?
DT40 TDP1 no CPT: 7.31µM*; TDP1 block: -4.3%[12.3 µM]; DT40 TDP1 CPT: 1.84µM*; miR-21 reporter: 4.0%

What do the screens show for `CCN(CC)C(=O)Cn1c(=O)n(CCCCCC(=O)NCc2ccccc2Cl)c(=O)c2sccc21`?
DT40 TDP1 no CPT: -9.7%; TDP1 block: 1.8%; DT40 TDP1 CPT: -18.6%; miR-21 reporter: -0.6%

What do the screens show for `CCc1ccccc1NC(=O)CN(C)C(=O)COC(=O)c1ccccc1Cl`?
DT40 TDP1 no CPT: 0.3%; TDP1 block: 0.9%; uPA generation: 5.7%; DT40 TDP1 CPT: -16.3%

How did Cc1onc(-c2c(F)cccc2Cl)c1C(=O)Nc1cccc(S(=O)(=O)N2CCOCC2)c1 do in these assays?
DT40 TDP1 no CPT: -28.1%; TDP1 block: -0.9%; uPA generation: 3.4%; DT40 TDP1 CPT: -26.0%

What do the screens show for `COc1ccc(NC(=O)C2CCN(S(=O)(=O)c3c(C)noc3/C=C/c3ccc(C)cc3)CC2)cc1Cl`?
DT40 TDP1 no CPT: -22.7%; TDP1 block: 0.6%; DT40 TDP1 CPT: -11.3%; miR-21 reporter: 3.1%

What do the screens show for `COc1ccc(CNS(=O)(=O)c2ccc(N3CCCC3)cc2Br)cc1`?
DT40 TDP1 no CPT: inconclusive; TDP1 block: 1.0%[56.1 µM]; uPA generation: -3.5%; DT40 TDP1 CPT: inconclusive

How did Cc1cc(C)cc(C(=O)N(CCc2ccccc2)C2CC3CCC(C2)N3C)c1 (stereo unspecified) do in these assays?
DT40 TDP1 no CPT: inconclusive; uPA generation: -6.4%; DT40 TDP1 CPT: inconclusive; miR-21 reporter: 0.8%

How did Cc1cc2nc(C)c(=O)n(C)c2cc1C do in these assays?
DT40 TDP1 no CPT: inconclusive; TDP1 block: 7.9%; uPA generation: -1.5%; DT40 TDP1 CPT: inconclusive; miR-21 reporter: -9.8%

How did O=c1[nH]c(N2CCCCC2)nc2c1CCCC2 do in these assays?
DT40 TDP1 no CPT: -13.2%; TDP1 block: 1.0%; uPA generation: -1.1%; DT40 TDP1 CPT: -24.4%; miR-21 reporter: -3.7%

Results for Cc1ccc(C)c(NC(=S)Nc2cccc3cnccc23)c1 ?
DT40 TDP1 no CPT: 16.4µM*; TDP1 block: -2.6%; uPA generation: 8.9%; DT40 TDP1 CPT: 14.6µM*; miR-21 reporter: -1.0%

How did S=C(Nc1cccc(Cl)c1)Nc1ccccc1Oc1ccccc1 do in these assays?
DT40 TDP1 no CPT: 20.6µM*; TDP1 block: 4.8%; uPA generation: 2.5%; DT40 TDP1 CPT: inconclusive; miR-21 reporter: 8.4%

How did Cc1ccccc1NC(=S)Nc1cccc2cnccc12 do in these assays?
DT40 TDP1 no CPT: inconclusive; TDP1 block: -5.1%; uPA generation: -0.7%; DT40 TDP1 CPT: inconclusive; miR-21 reporter: 2.1%

What do the screens show for `S=C(Nc1cccc(Cl)c1)Nc1cccc2cnccc12`?
DT40 TDP1 no CPT: 18.4µM*; TDP1 block: -1.8%; uPA generation: 13.2%; DT40 TDP1 CPT: 16.4µM*; miR-21 reporter: inconclusive

What do the screens show for `S=C(Nc1ccc(Cl)cc1Cl)Nc1ccccc1Oc1ccccc1`?
DT40 TDP1 no CPT: inconclusive; TDP1 block: 2.1%; uPA generation: -4.6%; DT40 TDP1 CPT: -22.7%; miR-21 reporter: -5.5%

How did Cc1ccc(NC(=S)Nc2cccc3cnccc23)cc1 do in these assays?
DT40 TDP1 no CPT: 16.4µM*; TDP1 block: 4.6%; uPA generation: -3.0%; DT40 TDP1 CPT: inconclusive; miR-21 reporter: -25.6%

How did COc1ccc([N+](=O)[O-])cc1NC(=O)COC(=O)c1ccccc1O do in these assays?
DT40 TDP1 no CPT: -5.4%; TDP1 block: 0.0%; uPA generation: 7.2%; DT40 TDP1 CPT: -12.2%; miR-21 reporter: 0.2%

How did CCN(CC)CCCCCCCCOC(=O)c1cc(OC)c(OC)c(OC)c1 do in these assays?
DT40 TDP1 no CPT: 21.7µM*!; TDP1 block: 10.4%[56.1 µM]; uPA generation: 18.6%; DT40 TDP1 CPT: inconclusive

What do the screens show for `COc1cc(C(=O)OCCCN2CCCN(CCCOC(=O)c3cc(OC)c(OC)c(OC)c3)CC2)cc(OC)c1OC`?
DT40 TDP1 no CPT: 23.7µM*; TDP1 block: 11.8%[56.1 µM]; uPA generation: -17.8%; DT40 TDP1 CPT: 16.8µM*!

Results for COc1ccc(C=O)cc1CN1C(=O)c2ccccc2C1=O ?
DT40 TDP1 no CPT: inconclusive; uPA generation: -4.6%; DT40 TDP1 CPT: 25.2%; miR-21 reporter: 5.2%

Results for CN1C(=O)/C(=C/c2cc(C(C)(C)C)c(O)c(C(C)(C)C)c2)NC1=S ?
DT40 TDP1 no CPT: -1.4%; TDP1 block: 5.3%; uPA generation: 8.0%; DT40 TDP1 CPT: -18.2%; miR-21 reporter: -6.3%

What do the screens show for `C=C(C)C(COc1c2occc2cc2ccc(=O)oc12)OC(C)(C)C(O)COc1c2occc2cc2ccc(=O)oc12` (stereo unspecified)?
DT40 TDP1 no CPT: 14.6µM*; TDP1 block: 0.7%; uPA generation: -0.8%; DT40 TDP1 CPT: 13µM*

Results for CC(C)C(=O)COc1c2occc2cc2ccc(=O)oc12 ?
DT40 TDP1 no CPT: -19.1%; TDP1 block: -4.4%; uPA generation: -1.4%; DT40 TDP1 CPT: 6.3%

Results for COc1ccc2c(c1)c(=O)c(S(=O)(=O)c1ccc(C)cc1)cn2Cc1ccccc1C ?
DT40 TDP1 no CPT: 18.4µM*; TDP1 block: 1.3%; DT40 TDP1 CPT: inconclusive; miR-21 reporter: 12.3%

Results for CCOc1ccc(S(=O)(=O)c2cn(Cc3ccccc3C)c3ccc(OC)cc3c2=O)cc1 ?
DT40 TDP1 no CPT: 11.6µM*; TDP1 block: 9.0%; DT40 TDP1 CPT: 14.6µM*; miR-21 reporter: 9.3%

How did CCCn1cc(S(=O)(=O)c2ccc(C)cc2)c(=O)c2cc(OC)ccc21 do in these assays?
DT40 TDP1 no CPT: 1.7%; TDP1 block: 6.5%; uPA generation: 2.3%; DT40 TDP1 CPT: -18.9%; miR-21 reporter: -12.1%

Results for CCCn1cc(S(=O)(=O)c2ccc(Cl)cc2)c(=O)c2cc(OC)ccc21 ?
DT40 TDP1 no CPT: 23.1µM*; TDP1 block: 1.4%; uPA generation: 1.1%; DT40 TDP1 CPT: 16.4µM*; miR-21 reporter: -20.3%

What do the screens show for `COc1ccc2c(c1)c(=O)c(S(=O)(=O)c1ccc(Cl)cc1)cn2Cc1cc(C)ccc1C`?
DT40 TDP1 no CPT: inconclusive; TDP1 block: 3.8%; DT40 TDP1 CPT: -21.2%; miR-21 reporter: 1.0%

How did COc1ccc(-n2nnnc2CNC(=O)C2CC(=O)N(c3ccc(F)cc3)C2)cc1 (stereo unspecified) do in these assays?
DT40 TDP1 no CPT: -15.4%; DT40 TDP1 CPT: -7.8%

Results for O=C(CC1SC(=Nc2ccccc2)N(CCc2c[nH]c3ccccc23)C1=O)Nc1ccccc1F (stereo unspecified) ?
DT40 TDP1 no CPT: inconclusive; TDP1 block: 5.7%; uPA generation: -6.9%; DT40 TDP1 CPT: inconclusive; miR-21 reporter: 4.1%

Looked up by compound from above, 3 records:
What do the screens show for `C=C(C)C(COc1c2occc2cc2ccc(=O)oc12)OC(C)(C)C(O)COc1c2occc2cc2ccc(=O)oc12` (stereo unspecified)?
DT40 TDP1 no CPT: 14.6µM*; TDP1 block: 0.7%; uPA generation: -0.8%; DT40 TDP1 CPT: 13µM*

How did COc1ccc(-n2nnnc2CNC(=O)C2CC(=O)N(c3ccc(F)cc3)C2)cc1 (stereo unspecified) do in these assays?
DT40 TDP1 no CPT: -15.4%; DT40 TDP1 CPT: -7.8%

How did CCCn1cc(S(=O)(=O)c2ccc(C)cc2)c(=O)c2cc(OC)ccc21 do in these assays?
DT40 TDP1 no CPT: 1.7%; TDP1 block: 6.5%; uPA generation: 2.3%; DT40 TDP1 CPT: -18.9%; miR-21 reporter: -12.1%

Source: PubChem BioAssay
